Compound activity from PubChem BioAssay.
In the library only some 3.7% were active in any assay of this set; here they are far more common.
IL2 activator: activates IL-2 in a cell-based reporter assay; activation, % (series mostly up to about 46 µM); IL-2 activation reporter assay, cell-based qHTS; stimulated with anti-CD3/CD4/CD28 beads; in transgenic mouse T cells; actives 0.065% (n = 360,000); in the data active = activation above about 50%; inconclusive = mostly about 30% to 49%; also: 0% is about no effect
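Screening format: compound pinned onto unstimulated transgenic mouse T cells, 60 min incubation, then anti-CD3/anti-CD4/anti-CD28 bead stimulation for 18 hours at 37 degrees C, followed by EGFP and DsRed detection.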
Nrf2 block: inhibitors of Nrf2 signaling; A549 ARE-Fluc reporter, luciferase luminescence, 18-24 h; actives 2.1% (n = 360,000); Potency, µM (highest dose often 46 µM), for inactives: at the highest dose activity change, negative = inhibition, most hits filed as inhibitors; also: potency is read from the fitted curve at half-maximal effect; % is scaled to controls: 0 for no effect and ±100 for the full control effect; nearly all actives have a fitted effect of over 60% in size
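A549 ARE_Fluc cells (5000/well, 5% FBS OPTI-MEM) pre-incubated 2 h, then treated with compounds 18-24 h at 37C/5% CO2 in concentration-response. CellTiter-Fluor viability read first; BugLite luciferase luminescence after 15 min at room temperature gives Nrf2 activity.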
miR-21 FLuc: raises the signal of a miR-21 reporter; HeLa miR-21 FLuc reporter, luciferase, 48 h; Potency, µM (highest dose often 38.3 µM), for inactives: at the highest dose reporter change, positive = more light; 340,000 tested, under 10 active; active = well fitted rising curve with a large enough effect; inconclusive = small, poorly fitted or top-dose-only effect; inactive = no such curve, though single readings can be large or run the other way;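 also: % of control where 0% means no effect; miR-21 action dims this reporter so a rising signal means less miR-21 action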
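Using DMEM plus 10% FBS, HeLa miR-21-FLuc cells are incubated with test compounds (final up to about 40uM) for 48 hours; firefly luciferase signal is then imaged following reagent-mediated lysis.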
A549 tox: A549 cytotoxicity, counter-screen for Nrf2 inhibitors; A549 ARE-Fluc cells, CellTiter-Fluor viability, 18-24 h; Potency, µM (doses to about 46 µM), inactives show top-dose activity change, negative = cytotoxicity, most hits filed as inhibitors; actives 0.16% (n = 390,000); AID 504648; also: potency is read from the fitted curve at half-maximal effect; % is scaled to controls: 0 for no effect and ±100 for the full control effect
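Cytotoxicity counterscreen: CellTiter-Fluor fluorescence was measured in A549 ARE_Fluc cells after 18-24 h of compound exposure in a concentration series. The subsequent BugLite luminescent read reports ARE-luciferase activity.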
ClpP mod: qHTS Assay for Activators of ClpP | ATP-dependent Clp protease proteolytic subunit (Bacillus subtilis (strain 168)), P80244 | purified B. subtilis ClpP, FRET peptide cleavage, 20 min | Potency, µM (doses to about 57.5 µM), for inactives: at the top dose activity change, negative = active | actives 1.9% (n = 340,000) | AID 651965, 2013; active = well fitted falling curve with a large enough effect; inconclusive = small, poorly fitted or top-dose-only effect; inactive = no such curve, though single readings can be large or run the other way; also: potency is read from the fitted curve at half-maximal effect; the source files actives as falling curves though it sought activators and does not explain the sign; nearly all actives have a fitted effect of over 65% in size
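ClpP 10 microg/mL final, pH 8 Tris/KCl buffer with BSA, glycerol, Tween-20; compound pinned in; FRET-FV substrate; RT 20 min; Ex320/Em430; ΔFRET vs ADEP 5.8 microM, DMSO, no enzyme.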
Nrf2 ARE act: Nrf2 pathway activation; AREc32 ARE-luciferase reporter (MCF7-derived line), luminescence, 24 h; Potency, µM (top dose mostly 46.1 µM), for inactives: at the top dose activation, usual class: activators; actives 0.31% (n = 410,000); AID 624171; also: potency is read from the fitted curve at half-maximal effect; % of control where 0% means no effect; nearly all actives have a fitted effect of over 65% in size
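Nrf2 activation is followed as ARE-luciferase induction in the AREc32 line after one day of compound treatment; luminescence is read with Steady-Glo.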
Starred values were filed as active, the others as inactive; ? = inconclusive; . = no result. Unless noted, calls follow the shape of the dose curve; as a rule, active = well fitted curve in the direction sought with a large enough effect; inconclusive = small, poorly fitted or top-dose-only effect, or another doubt; inactive = no such curve, though single readings can be large; an effect the other way counts as inactive or inconclusive.

Protein sequences, listed by entry. Tags and fused reporters are not part of them.
ATP-dependent Clp protease proteolytic subunit (Bacillus subtilis (strain 168)), P80244, UniProt P80244, whole entry, looked up: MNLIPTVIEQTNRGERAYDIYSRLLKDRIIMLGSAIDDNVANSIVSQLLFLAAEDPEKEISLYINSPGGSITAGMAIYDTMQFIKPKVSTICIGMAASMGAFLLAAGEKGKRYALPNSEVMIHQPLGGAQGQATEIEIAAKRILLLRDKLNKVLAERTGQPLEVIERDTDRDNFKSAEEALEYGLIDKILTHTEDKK

compound	IL2 activator	Nrf2 block	Nrf2 ARE act	ClpP mod	miR-21 FLuc	A549 tox
CCOc1ccc(N2CC(C(=O)Nc3ccccn3)CC2=O)cc1 (centres undefined)	-2	?	-1%	.	1%	2%
O=S(=O)(NCc1cccs1)c1ccc(Br)cc1	1	-4%	-1%	0%	-4%	5%
O=C(Nc1ccc(Br)cc1)c1ccc(F)c(S(=O)(=O)NCc2cccs2)c1	-4	12µM*	4%	-1%	?	-3%
Cc1ccc(Cn2cc(S(=O)(=O)c3cccc(C)c3)c(=O)c3cc(F)c(N4CCOCC4)cc32)cc1	.	?	0%	5%	-6%	7%
Cc1nonc1C(=O)N/N=C/c1ccc(O)c(O)c1	3	0%	12%	28µM*	-59%	-13%
COc1cc(/C=N/NC(=O)c2nonc2C)ccc1O	2	-1%	6%	.	-7%	-3%
CC(C)(C)OC(=O)N1CCC(C(=O)Nc2cccc(C(=O)NCCCc3ccccc3)c2)CC1	-1	23µM*	5%	3%	.	-6%
CC(C)(C)OC(=O)N(CCc1ccccc1)Cc1cccc(OCc2cccc(NC(=O)C3CCC3)c2)c1	0	?	4%	-1%	.	-3%
CC(C)(C)OC(=O)N(Cc1ccccc1)Cc1cccc(OCc2cccc(NC(=O)C3CC3)c2)c1	0	26µM*	6%	-5%	.	-6%
O=S(=O)(O)c1cc(O)c2c(O)c(N=Nc3cc(Cl)ccc3O)c(S(=O)(=O)O)cc2c1	0	21µM*	-1%	.	13%	15µM*
O=C(NC1CC(=O)N(c2ccc(F)cc2)C1)c1ccc(S(=O)(=O)N2CCCCC2)cc1 (centres undefined)	.	.	0%	0%	5%	-5%
Nc1c(C(O)(C(F)(F)F)C(F)(F)F)cc(C(O)(C(F)(F)F)C(F)(F)F)c2ccccc12	-2	15µM*	0%	-17%	?	?
CC(C)(C)c1ccc(C(=O)NCC(c2ccco2)S(=O)(=O)c2ccccc2)cc1 (centres undefined)	.	.	0%	1%	1%	-3%
COc1cc2c(cc1OC)C(C)N(C(=O)Nc1cc(C)cc(C)c1)CC2 (centres undefined)	0	1%	-1%	0%	20%	-8%
COc1cc2c(cc1OC)C(C)N(C(=O)c1cc3c(C)cc(C)cc3[nH]1)CC2 (centres undefined)	-2	15µM*	0%	-10%	22%	-7%
CS(=O)(=O)N(Cc1ccc(C(=O)NN=C2CCCCCC2)cc1)c1ccccc1	0	-18%	5%	32µM*	8%	0%
Fc1cccc(-c2nc(-c3ccncc3)no2)c1	.	.	?	-5%	-50%	5%
CC(=O)c1cccc(NCc2ccccc2-c2nnc(-c3ccccc3)o2)c1	.	?	4%	214%	-45%	-4%
O=C(Nc1ccc(Oc2c(F)c(F)c(F)c(F)c2F)cc1)OC1CCN2Cc3ccccc3N=C12 (centres undefined)	-3	23µM*	23%	.	8%	21µM*
O=C(NCc1ccc(Cl)cc1)C1CCN(c2nn3cc(-c4ccc(F)cc4)nc3s2)CC1	.	?	4%	-1%	-22%	0%
CC1CCCCC1NC(=O)COC(=O)COc1ccccc1F (centres undefined)	-1	7%	0%	28µM*	.	3%
COc1nnc(-c2ccc(N3CCCCC3)c(N)c2)c2ccccc12	-2	21µM*	6%	-2%	.	-11%
COc1ccccc1N1CCN(CCCN2C(=O)C3CCCCN3C2=O)CC1 (centres undefined)	-1	7%	-1%	-1%	.	-3%

Compounds from the list above with bromine, in the order listed:
compound	IL2 activator	Nrf2 block	Nrf2 ARE act	ClpP mod	miR-21 FLuc	A549 tox
O=S(=O)(NCc1cccs1)c1ccc(Br)cc1	1	-4%	-1%	0%	-4%	5%
O=C(Nc1ccc(Br)cc1)c1ccc(F)c(S(=O)(=O)NCc2cccs2)c1	-4	12µM*	4%	-1%	?	-3%

Record cards, from the list above. Order of screens: IL2 activator	Nrf2 block	Nrf2 ARE act	ClpP mod	miR-21 FLuc	A549 tox
`CC(=O)c1cccc(NCc2ccccc2-c2nnc(-c3ccccc3)o2)c1` is listed as .	?	4%	214%	-45%	-4%
`CC1CCCCC1NC(=O)COC(=O)COc1ccccc1F` (centres undefined) is listed as -1	7%	0%	28µM*	.	3%
